“Also recorded” adds a separate entry of the source.

Consider 1 substance from patent US20210145989A1, “COMPOSITIONS AND RELATED METHODS FOR BLOCKING OFF-TARGET LOCALIZATION OF MANNOSYLATED DEXTRANS AND OTHER CD206 LIGANDS” (Navidea Biopharmaceuticals, Inc., priority 2019, published 2021).

This data set relates to CD206. Put plainly: Autoradiography of 99mTc-tilmanocept organ localization after IV injection in healthy rats. Format: in vivo. The note with it: male Sprague Dawley rat, IV tail vein, 25 μg labeled with 5 mCi 99mTc, one hour after injection, autoradiogram. How it is done: Because of their high affinity for CD206, mannosylated dextrans generally and 99mTc-tilmanocept specifically have been investigated as either imaging agents or drug delivery vehicles for macrophage involved illnesses atherosclerosis, cancer and rheumatoid arthritis (unpublished results). Diagnostic imaging studies were performed using Lymphoseek (99mTc-tilmanocept) that was administered by intravenous (IV) injection rather than the peritumoral or intradermal injection route of administration used for the SLN related indications. […] The Sprague Dawley rats in this study were healthy, so there were no disease lesions to which 99mTc-tilmanocept could have localized.

Consider “dextran 3-[(2-aminoethyl)thio]propyl 17-carboxy-10,13,16-tris(carboxymethyl)-8-oxo-4-thia-7,10,13,16-tetraazaheptadec-1-yl 3-[[2-[[1-imino-2-(D-mannopyranosylthio)ethyl]amino]ethyl]thio]propyl ether complexes [99mTc-tilmanocept]”, for which the “localization of radioactivity to the liver and kidneys” value was “greatest localization; also recorded: intense localization”.
